In article PMC2747684, “Sustained antiproliferative mechanisms by RB24, a targeted precursor of multiple inhibitors of epidermal growth factor receptor and a DNA alkylating agent in the A431 epidermal carcinoma of the vulva cell line” (British Journal of Cancer, 2004):

Target: epidermal growth factor receptor (EGFR) (Homo sapiens, UniProt P00533)

With `CN/N=N/c1ccc2ncnc(Nc3cccc(Br)c3)c2c1` [ZR08] the “EGFR autophosphorylation in A431 cells at 30 μM, before and after washout (Weste)” value was “irreversible inhibition was observed in cells exposed to the daughter molecules, RB14 and ZR08”.
